ClpP mod = qHTS Assay for Activators of ClpP; ATP-dependent Clp protease proteolytic subunit (Bacillus subtilis (strain 168)), P80244; purified B. subtilis ClpP, FRET peptide cleavage, 20 min; Potency, µM (doses to about 57.5 µM); 340,000 tested, 1.9% active; AID 651965, 2013; active means well fitted falling curve with a large enough effect; inconclusive means small, poorly fitted or top-dose-only effect; inactive means no such curve, though single readings can be large or run the other way; further: the source files actives as falling curves though it sought activators and does not explain the sign; nearly all actives have a fitted effect of over 65% in size
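ClpP 10 microg/mL final, pH 8 Tris/KCl buffer with BSA, glycerol, Tween-20; compound pinned in; FRET-FV substrate; RT 20 min; Ex320/Em430; ΔFRET vs ADEP 5.8 microM, DMSO, no enzyme.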
TCR act = activators of T cell receptors; Potency, µM (top dose mostly 9.22 µM), actives largely listed as activators; 330,000 tested, under 10 active; primary human leukocytes, anti-CD3, IL-2 HTRF, 48 h; AID 504894
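HTRF read-out of IL-2 secretion: europium cryptate donor excited at 320nm, d2 acceptor emission at 665nm. Cells were primary human leukocytes incubated 48 hr with compounds and a-CD3 beads, supplying TCR signal only.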
Nrf2 activator = activates Nrf2 signaling | AREc32 ARE-luciferase reporter (MCF7-derived line), luminescence, 24 h | Potency, µM (series often up to 46.1 µM), most hits filed as activators | 410,000 tested, 0.31% active; further: nearly all actives have a fitted effect of over 65% in size
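Each well held 1000 AREc32 cells, which were incubated with compound for 24 hr at 37 deg C after overnight attachment, and ARE reporter activity was quantified by firefly luciferase luminescence.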
Nrf2 block = inhibitors of Nrf2 signaling; A549 ARE-Fluc reporter, luciferase luminescence, 18-24 h; Potency, µM (titrated, usually from 46 µM), hits mostly inhibitors; 360,000 tested, 2.1% active; AID 504444; further: nearly all actives have a fitted effect of over 60% in size
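Two sequential reads on A549 ARE_Fluc cells exposed to compound for 18-24 h: a CellTiter-Fluor fluorescence read for viability, then a luciferase luminescence read for Nrf2/ARE activity.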
miR-21 FLuc = miR-21 reporter, rising signal; 340,000 tested, under 10 active; Potency, µM (highest dose often 38.3 µM); HeLa miR-21 FLuc reporter, luciferase, 48 h; active = well fitted rising curve with a large enough effect; inconclusive = small, poorly fitted or top-dose-only effect; inactive = no such curve, though single readings can be large or run the other way;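 further: miR-21 action dims this reporter so a rising signal means less miR-21 action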
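Using DMEM plus 10% FBS, HeLa miR-21-FLuc cells are incubated with test compounds (final up to about 40uM) for 48 hours; firefly luciferase signal is then imaged following reagent-mediated lysis.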
A549 tox = kills or reduces viability of A549 cells in Nrf2 counter-screen. A549 ARE-Fluc cells, CellTiter-Fluor viability, 18-24 h. Potency, µM (top dose mostly 46 µM), most hits filed as inhibitors. 390,000 tested, 0.16% active. AID 504648
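A549 ARE_Fluc cells in 5% FBS OPTI-MEM were exposed to compounds in concentration-response for 18-24 h at 37 deg C. Viability was read by CellTiter-Fluor fluorescence (Ex 405/Em 525) after 30 min, before the luciferase read.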
Large screens that a line does not name were inactive. The list is not random: actives were taken first. Their share in the collection is about 3.7%. Unless noted, the call rests on the fitted dose curve; in most records, active means well fitted curve in the direction sought with a large enough effect; inconclusive means small, poorly fitted or top-dose-only effect, or another doubt; inactive means no such curve, though single readings can be large; an effect the other way counts as inactive or inconclusive.

NC(=O)C(c1ccc(Cl)cc1)c1ccc(Sc2ccc(Cl)cc2)nn1 (centres undefined)	Nrf2 block 16.4µM
O=C(CSc1ccc(-c2ccncc2)nn1)c1ccc(Cl)cc1	none (no result: ClpP mod)
COc1ccc(/C=C2\SC(=S)N(CCCC(=O)NNC(=O)c3ccccc3O)C2=O)cc1	Nrf2 block 13µM (no result: ClpP mod)
O=C(CCCN1C(=O)/C(=C/c2ccccc2Cl)SC1=S)NNC(=O)c1ccccc1Cl	Nrf2 block 18.4µM, miR-21 FLuc inconclusive
O=C(CCCN1C(=O)/C(=C/c2ccccc2Cl)SC1=S)NNC(=O)c1ccncc1	Nrf2 block 25.9µM (no result: ClpP mod)
CC1(C(=O)NS(=O)(=O)c2ccc(C#N)cc2)CCN1C(=O)CC1CC1 (centres undefined)	none (no result: TCR act, Nrf2 block, miR-21 FLuc, A549 tox)
O=C(CN1C(=O)NC(c2ccccc2)(c2ccccc2)C1=O)NC1CCCCC1	none (no result: miR-21 FLuc)
CC(OC(=O)C1=COCCO1)C(=O)Nc1ccc(Cl)cn1 (centres undefined)	none (no result: ClpP mod, miR-21 FLuc)
O=C(NCCNc1ccnc2cc(Cl)ccc12)c1ccccc1F	Nrf2 block 18.4µM
OC(CNc1ccnc2cc(Cl)ccc12)CNC1CCCCC1 (centres undefined)	ClpP mod 28.2µM, A549 tox inconclusive (no result: miR-21 FLuc)
O=C(NCCNc1ccc(Cl)cc1[N+](=O)[O-])c1ccccc1F	none
CCN(CC)CCNc1ccnc2cc(Cl)ccc12	ClpP mod 31.6µM, A549 tox inconclusive (no result: Nrf2 block)
CC1NC(=O)c2cccnc2-n2c1nc1cc(F)ccc1c2=O (centres undefined)	none (no result: TCR act, Nrf2 block, miR-21 FLuc, A549 tox)
CCOC(=O)c1csc(-c2ccc(COC(=O)c3ccccc3)o2)n1	none (no result: TCR act, Nrf2 block, miR-21 FLuc, A549 tox)
CN(C(=O)C1CCCC1)C1CCS(=O)(=O)C1 (centres undefined)	none (no result: miR-21 FLuc)
O=C(NCCOc1ccccc1)C1=CC=CN2CCS(=O)(=O)N=C12	ClpP mod 31.6µM (no result: miR-21 FLuc)
COc1ccc(CCNC(=O)C2=CC=CN3CCS(=O)(=O)N=C23)cc1	none (no result: miR-21 FLuc)
Cc1ccc(CNC(=O)c2ccc(NC(=O)N3CCSc4ncccc43)cc2)cc1	none (no result: TCR act, Nrf2 block)
O=C(NCc1ccccc1)c1ccc(NC(=O)N2CCSc3ncccc32)cc1	ClpP mod 31.6µM (no result: TCR act)
CCc1ccc(CNC(=O)c2ccc(NC(=O)N3CCSc4ncccc43)cc2)cc1	ClpP mod 31.6µM (no result: TCR act)
COc1ccc(C(=O)Nc2c(N)nc(SCC(=O)c3ccccc3)[nH]c2=O)cc1	none
COCc1cc(C)n(CC(=O)Nc2ccc(Cl)cc2Cl)c(=O)c1C#N	ClpP mod 25.1µM, Nrf2 block inconclusive
COc1cccc(-c2nc(CS(=O)(=O)CC(=O)Nc3ccccc3Br)c(C)o2)c1	Nrf2 block inconclusive (no result: ClpP mod)
C=C1CCN(C(CC(C)C)C(=O)Nc2nc3ccc(Cl)cc3s2)S(=O)(=O)c2ccccc21 (centres undefined)	Nrf2 block inconclusive (no result: ClpP mod, TCR act, Nrf2 activator, miR-21 FLuc)
CCOC(=O)C1CCCN(S(=O)(=O)CCNC(=O)c2cccc(OC)c2)C1 (centres undefined)	Nrf2 block 18.4µM (no result: ClpP mod, miR-21 FLuc)
CCOC(=O)C1CCN(S(=O)(=O)CCNC(=O)c2ccccc2)CC1	none (no result: ClpP mod, miR-21 FLuc)
Cc1c(P(=S)(c2ccccc2)c2ccccc2)c2ccccc2n1Cc1ccccc1	none (no result: ClpP mod, TCR act, Nrf2 activator, miR-21 FLuc)
Clc1ccc(Oc2ncnc3oc(-c4ccccc4)cc23)cc1	none
Cc1ccccc1Oc1ncnc2oc(-c3ccccc3)cc12	ClpP mod 31.6µM (no result: Nrf2 block)
O=C(COC(=O)Cc1ccc(Br)cc1)NCc1ccc2c(c1)OCO2	none (no result: ClpP mod, miR-21 FLuc)
CC1(C)Cc2ccccc2/C(=C/C(=O)N2CCCCCC2)N1	Nrf2 block 25.9µM
COc1cc2c(cc1OC)/C(=C/C(=O)N1CCOCC1)NC(C)(C)C2	ClpP mod 12.6µM (no result: Nrf2 block)
CC1=C(CO)C(=O)OC([C@@H](C)C2CC[C@H]3C4C[C@H]5O[C@]56[C@@H](O)C=CC(=O)[C@]6(C)C4CC[C@]23C)C1 (some centres undefined)	Nrf2 block 13µM, miR-21 FLuc inconclusive
CCCCC(CC)C(=O)Nc1ncc([N+](=O)[O-])s1 (centres undefined)	Nrf2 block 9.2µM, A549 tox 18.4µM
Cc1ccc(CC(=O)Nc2ncc([N+](=O)[O-])s2)cc1	Nrf2 block inconclusive
COc1ccc(OCCCC(=O)OC(C)C(=O)Nc2ccc(S(N)(=O)=O)cc2)cc1 (centres undefined)	none (no result: ClpP mod, miR-21 FLuc)
O=C(O)/C=C/C(=O)Nc1ccc(S(=O)(=O)Nc2nccs2)cc1	none
CCN(CC(O)CON=C1c2ccccc2-c2ccccc21)S(=O)(=O)c1ccc(C)cc1 (centres undefined)	Nrf2 block 20.6µM, A549 tox inconclusive
CN(CC(O)CON=C1c2ccccc2-c2ccccc21)S(=O)(=O)c1ccc(Br)cc1 (centres undefined)	Nrf2 block 20.6µM, A549 tox inconclusive
CCN(CC(O)CON=C1c2ccccc2-c2ccccc21)S(=O)(=O)c1ccc(Cl)cc1 (centres undefined)	Nrf2 block inconclusive
CCCSC1=N/C(=C\C=C\c2ccco2)C(=O)S1	Nrf2 activator 10µM
O=C(Cc1ccc(Br)cc1)NO	none (no result: TCR act, Nrf2 activator, Nrf2 block, miR-21 FLuc, A549 tox)
CCCc1c(C)[nH]c2ccc(NC(C)=O)cc2c1=O	ClpP mod inconclusive
CC(=O)CCc1c(C)[nH]c2ccc(NC(C)=O)cc2c1=O	ClpP mod 25.1µM
O=S(=O)(c1ccc(F)cc1)N1CCC(Oc2cccc(C(F)(F)F)c2)CC1	none (no result: TCR act)
Cc1ccc(NC(=O)CC(=O)Nc2ccc(C)cc2C)c(C)c1	none
Cc1ccc(N/C(C(Cl)=C(Cl)Cl)=C(/Cl)[N+](=O)[O-])c(C)c1	Nrf2 activator 22.4µM
CN(C)c1ccc(/C=C/N2C=CCc3c2ccc2ccccc32)cc1	none (no result: TCR act, Nrf2 activator, Nrf2 block, miR-21 FLuc, A549 tox)
O=C(CNC(=O)C1CCCCCC1)OC(C(=O)Nc1cc(C(F)(F)F)ccc1Cl)c1ccccc1 (centres undefined)	none (no result: ClpP mod, TCR act, Nrf2 activator, miR-21 FLuc)
NC1=C(Br)C(=O)c2ncccc2C1=O	Nrf2 block 10.3µM, A549 tox 16.4µM (no result: miR-21 FLuc)
CCn1cnc2c(Nc3ccc(Cc4cccnc4)cc3)nc(C#N)nc21	Nrf2 block inconclusive (no result: ClpP mod, TCR act, Nrf2 activator, miR-21 FLuc)
COC(=O)C1(C)CN(S(=O)(=O)c2ccc(C)cc2)c2cc(OC)ccc2C1=O (centres undefined)	ClpP mod 12.6µM
Cc1cc2c(s1)c1cnn(Cc3cc(F)ccc3C)c(=O)c1n2C	none (no result: ClpP mod, TCR act, Nrf2 activator, miR-21 FLuc)
Cc1cc(C(=O)COc2cccnc2[N+](=O)[O-])c(C)n1Cc1ccco1	Nrf2 block inconclusive
Cc1cc(C(=O)COc2cccnc2[N+](=O)[O-])c(C)n1-c1ccccc1	Nrf2 block 2.91µM
Cc1ccc(-n2c(C)cc(C(=O)COc3cccnc3[N+](=O)[O-])c2C)cc1	Nrf2 block 3.26µM
